Measured values: patent publication US9951035B2 (dated 2018)

Protein sequences, listed by entry. Tags and fused reporters are not part of them. Residues count along the entry.
UniProt P22894, 100-262: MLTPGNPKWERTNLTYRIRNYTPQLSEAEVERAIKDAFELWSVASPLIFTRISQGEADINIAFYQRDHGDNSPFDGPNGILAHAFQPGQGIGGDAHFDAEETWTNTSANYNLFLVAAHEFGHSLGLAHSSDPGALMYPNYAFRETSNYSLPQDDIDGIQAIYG

Molecular target: MMP-8 (Homo sapiens (Human), UniProt P22894)
Assay: Enzyme inhibition studies, MMP-8 catalytic domain
Assay type: biochemical
Details: linear noncompetitive or linear competitive mechanism as footnoted

`N=C(N)Nc1ccc(Oc2ccc(S(=O)(=O)CC3CS3)cc2)cc1` (stereo not shown) gave a Ki of 730 nM.
